Data taken from BindingDB's records for doi:10.1021/acschembio.6b00560 (Vanderbilt Institute of Chemical Biology, Vanderbilt …, 2016).

Chains of the proteins cited; added tags and fusions are not shown. Residues count along the entry.
UniProt Q05769, 18-604 S516A: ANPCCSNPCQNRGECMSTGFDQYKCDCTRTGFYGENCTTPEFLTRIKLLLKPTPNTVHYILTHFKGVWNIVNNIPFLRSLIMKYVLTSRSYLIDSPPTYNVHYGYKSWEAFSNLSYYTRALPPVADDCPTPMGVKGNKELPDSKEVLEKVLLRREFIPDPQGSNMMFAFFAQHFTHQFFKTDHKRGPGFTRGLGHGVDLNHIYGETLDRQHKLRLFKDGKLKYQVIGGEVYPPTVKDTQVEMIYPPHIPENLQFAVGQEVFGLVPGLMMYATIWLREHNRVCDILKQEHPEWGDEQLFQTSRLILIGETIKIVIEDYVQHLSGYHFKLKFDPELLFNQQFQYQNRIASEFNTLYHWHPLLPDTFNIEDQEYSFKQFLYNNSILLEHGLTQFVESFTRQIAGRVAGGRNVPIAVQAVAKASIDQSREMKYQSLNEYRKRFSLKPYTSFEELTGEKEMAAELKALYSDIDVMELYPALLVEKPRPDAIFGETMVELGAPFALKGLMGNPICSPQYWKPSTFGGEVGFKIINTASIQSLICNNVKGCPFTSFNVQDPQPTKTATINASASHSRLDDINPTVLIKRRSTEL
UniProt Q05769, 18-604 V509I: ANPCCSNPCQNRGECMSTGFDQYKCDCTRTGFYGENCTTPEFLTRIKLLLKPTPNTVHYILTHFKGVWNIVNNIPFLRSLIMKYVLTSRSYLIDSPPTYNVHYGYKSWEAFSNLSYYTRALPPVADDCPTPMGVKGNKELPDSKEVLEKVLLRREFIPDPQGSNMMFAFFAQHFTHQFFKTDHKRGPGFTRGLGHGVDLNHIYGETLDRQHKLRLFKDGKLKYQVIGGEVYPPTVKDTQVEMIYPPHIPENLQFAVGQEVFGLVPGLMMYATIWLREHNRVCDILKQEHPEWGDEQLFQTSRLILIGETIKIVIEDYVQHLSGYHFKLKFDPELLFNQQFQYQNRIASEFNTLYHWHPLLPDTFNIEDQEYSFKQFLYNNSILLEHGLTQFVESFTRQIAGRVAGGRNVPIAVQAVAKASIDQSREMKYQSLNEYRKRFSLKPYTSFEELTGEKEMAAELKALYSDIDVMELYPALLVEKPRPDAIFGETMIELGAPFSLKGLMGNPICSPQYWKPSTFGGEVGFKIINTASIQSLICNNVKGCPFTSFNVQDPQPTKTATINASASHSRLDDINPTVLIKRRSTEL

Columns and labels:
[1] = target: T1, Prostaglandin G/H synthase 2 (Mus musculus, UniProt Q05769); test: COX Enzyme Inhibition Assay (Table 1)
T1 sequence (Q05769 whole entry): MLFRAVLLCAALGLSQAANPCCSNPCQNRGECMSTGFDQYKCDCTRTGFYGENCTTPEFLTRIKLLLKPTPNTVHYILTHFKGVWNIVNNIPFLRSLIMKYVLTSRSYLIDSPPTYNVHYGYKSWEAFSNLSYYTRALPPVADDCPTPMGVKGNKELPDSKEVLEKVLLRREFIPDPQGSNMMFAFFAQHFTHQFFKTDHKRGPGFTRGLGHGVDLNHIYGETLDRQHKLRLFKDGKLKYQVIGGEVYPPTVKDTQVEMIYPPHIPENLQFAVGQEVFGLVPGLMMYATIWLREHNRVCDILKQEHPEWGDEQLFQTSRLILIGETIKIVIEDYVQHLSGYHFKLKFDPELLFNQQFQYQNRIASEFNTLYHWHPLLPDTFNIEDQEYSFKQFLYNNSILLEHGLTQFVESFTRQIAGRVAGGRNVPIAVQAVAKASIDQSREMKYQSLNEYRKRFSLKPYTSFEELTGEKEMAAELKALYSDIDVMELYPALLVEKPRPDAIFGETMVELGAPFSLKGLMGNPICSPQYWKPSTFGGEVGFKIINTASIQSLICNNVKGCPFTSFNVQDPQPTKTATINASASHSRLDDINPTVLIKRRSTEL
Procedure: Each molecule was evaluated for its ability to inhibit purified mouse COX-2 or ovine COX-1 using a previously described assay. [Kalgutkar et al, J. Med. Chem., 43:2860-2870]

[2] = target: T1, Prostaglandin G/H synthase 2
[3] = target: Prostaglandin G/H synthase 2 [18-604,S516A] (Mus musculus, UniProt Q05769, S516A)
[4] = target: Prostaglandin G/H synthase 2 [18-604,V509I] (Mus musculus, UniProt Q05769, V509I)

Compound | IC50 [1] [nM] | IC50 [2] [nM] | IC50 [3] [nM] | IC50 [4] [nM]
COc1ccc2c(c1)c(CC(=O)NCCOC(=O)CCC(=O)O[C@@H]1c3cc4c(cc3[C@H](c3cc(OC)c(OC)c(OC)c3)[C@@H]3C(=O)OCC13)OCO4)c(C)n2C(=O)c1ccc(Cl)cc1 (stereo not given in full) [Cytotoxic conjugates, 13] | 250 |  |  | 
COc1ccc2c(c1)c(CC(=O)NCCCCNC(=O)CCC(=O)O[C@@H]1c3cc4c(cc3[C@H](c3cc(OC)c(OC)c(OC)c3)[C@@H]3C(=O)OC[C@H]31)OCO4)c(C)n2C(=O)c1ccc(Cl)cc1 [N-{(Succinylpodophyllotoxinyl)but-4-yl}-2-{1-(4-chlorobenzoyl)-5-methoxy-2-methyl-1H-indol-3-yl}acetamide] | 290 | 290 | 1500 | 1100
